Reference: US20080299592A1, “Red-Shifted Luciferase” (priority 2007, published 2008)

System: HeLa cells
Experiment: Intracellular staining of mammalian tissue culture cells (HeLa) with bis-arsenical dyes
Assay type: cell-based
Conditions: deep red fluorescence

For bis-arsenical oxazine 170 [As2Ox170], which photobleaching is on record?
Its photobleaching is “less prone to photobleaching than either FlAsH or ReAsH”.
